Values of other authors, collected in patent US12186320B2, “Therapeutic agent containing pyrazolo[3,4-d]pyrimidine compound as active ingredient” (TAIHO PHARMACEUTICAL CO., LTD., priority 2018, dated 2025).
Entries after “also recorded” stand apart in the source; their conditions may differ.

How the values were obtained:
[1] = tested on: Champions Tumor Graft models CTG-1171; conditions: cited from earlier work
[2] = tested on: Breast cancer (primary), HER2 +; conditions: single patient; neighbouring lines without a result appear to be partners of the same regimen; cited from earlier work

Substance: Trastuzumab
- TGI of trastuzumab, judgement in words ([1]; Table 8, cells judged to have tolerance/resistance to trastuzumab): weak
- TGI (%) ([1]; single agents, Nab-paclitaxel 0.5 mg/kg/day once a week for 3 weeks i.v., Temsirolimus 0.5 once a week for 5 weeks i.p., Trastuzumab 15 once a week for 8 weeks i.v., Afatinib dose not given): 26%
- Result (treatment history before acquiring tumor tissue) [2]: Mixed response; also recorded: No response
